In patent US20050176641A1, “Long lasting natriuretic peptide derivatives” (CONJUCHEM, INC., priority 2000, published 2005) one finds NEP hydrolysis data, which are given here for one substance.

The subject of this series is NEP enzyme. As to the kind of experiment: Stability towards NEP enzyme (RIA detection). Particulars: control, 37° C., up to 48 hours. In kind it is in vitro ADME. The method, then:
Stability of conjugates of NP peptides is also tested in a NEP enzyme solution in comparison to the corresponding free NP peptides so as to show protection of the conjugated NP peptides against enzymatic degradation by NEP enzyme specifically. In the examples given below, the corresponding flee NP peptide is human ANP, called “hANP” herein below, which was provided by Phoenix Pharmaceuticals Inc., Belmont, Calif., USA.
Conditions for the analysis of the stability towards NEP enzyme degradation are as follow. The lyophilised enzymes contained in a vial of NEP enzyme (provided by Calbiochem/Novabiochem Corporation, San Diego, Calif., USA, product # 324762) are solubilized with 100 μL of 0.1 M Tris-HCl buffer pH 8.0. It was vortexed and sonnicated to ensure a complete dissolution of the enzymes. One vial contains between 800 and 950 U of enzymes. A solution of conjugates is prepared at 250 μM with 0.1 M Tris-HCl buffer pH 8.0. […]
For the radioimmunoassay, 50 μL of either NP conjugate calibration standards, quality control samples, or diluted test samples in assay buffer (0.05M phosphate buffer, pH 7.5, 0.08% sodium azide, 0.025M EDTA, and 0.1% gelatin) is added to the appropriately labeled 12×75 mm borosilicate glass test tubes. […] The supernatants (bound fractions) are then counted on a gamma counter (Packard Cobra II Auto-Gamma) for at least 2 minutes. […]

Turning to “capped HSA: albumin with a cysteine residue bonded to it”, the NEP hydrolysis entry is reported as “not (or almost not) subject to NEP hydrolysis”.
